According to US20190321478A1 (published 2019):

B1: R37P1H1 (TCR, V domains shown)
Valpha: AQTVTQSQPEMSVQEAETVTLSCTYDTSESNYYLFWYKQPPSRQMILVIRQEAYKQQNATENRFSVNFQKAAKSFSLKISDSQLGDTAMYFCAFGYSGGGADGLTFGKGTHLIIQP
Vbeta: DAGVTQSPTHLIKTRGQQVTLRCSPKSGHDTVSWYQQALGQGPQFIFQYYEEEERQRGNFPDRFSGHQFPNYSSELNVNALLLGDSALYLCASSNEGQGWEAEAFFGQGTRLTVV
B2: R59P2E7 (TCR, V domains shown)
Valpha: KQEVTQIPAALSVPEGENLVLNCSFTDSAIYNLQWFRQDPGKGLTSLLLIQSSQREQTSGRLNASLDKSSGRSTLYIAASQPGDSATYLCAVNSDYKLSFGAGTTVTVRA
Vbeta: AAGVIQSPRHLIKEKRETATLKCYPIPRHDTVYWYQQGPGQDPQFLISFYEKMQSDKGSIPDRFSAQQFSDYHSELNMSSLELGDSALYFCASSLGLGTGDYGYTFGSGTRLTVV

Target: T1, NYESO1 (peptide NYESO1-001) peptide on HLA-A*02:01 (human)
T1 peptide: SLLMWITQV
Assay: multimer staining

Row | binding result | Binder
1 | no recognition | B1
2 | no recognition | B2
